Experimental data from US20260199514A1, “PRODRUG STRATEGY THAT ENHANCES EFFICACY AND LOWERS SYSTEMIC TOXICITY OF MERTANSINE” (priority 2022, published 2026).

Experiment: Stability and release analysis of DM1-Prodrug in nanoparticles (RP-HPLC)
Assay type: physicochemical
Conditions: on the shelf and in tissue culture conditions prior to cellular uptake
Description: FIG. 11. NP[Prodrug] stability in phosphate buffer (PB), acetate buffer (AB) and PB containing enzymes (Enzyme cocktail) at 37° C. Briefly, nanoparticles were prepared and incubated in buffers for 0, 24, and 48 h at 37° C., while the samples were constantly shaking. Nanoparticles were analyzed after incubation period to determine whether prodrug molecules were stable under different pH and reaction condition, using a Zorbax C3 semiprep column and a 2-propanol/acetonitrile/water gradient. Normalized AUC=(AUC of Prodrug Peak at a given hour/AUC of Prodrug Peak at 0 h).
After determining the loading efficiency of DM1-Prodrug, the release of the active DM1 from the liposomes was evaluated using an analytical column in HPLC. […] The sustained retention is advantageous in nanoparticle delivery because it prevents leakage of the drug prior to reaching the target site and ensures its delivery in larger quantities to be released at the tumor site. Upon cellular uptake of nanoparticles, active drug release is facilitated by enzymatic degradation of liposomes and linking moiety.
Stability and Release Analysis of DM1. Samples were prepared at 25 mM of lipid concentration incorporating DM1-Prodrug. Nanoparticles were prepared using dry film hydration and extrusion as mentioned earlier. […]

DM1-DSPE [Prodrug-4]
stability of prodrug (in words): stable on the shelf and in tissue culture conditions
